Consider 1 compound from US20160199349A1 (priority 2012, published 2016).

For one test, the system named is rat. Briefly: Randall Selitto test in rats (inflammatory pain, Carrageenin-induced oedema). To be noted: applied alone. In kind it is in vivo. (In general: Carrageenan injected into the paw causes an acute inflammation.)
Test [1] deals with male albino rats (Sprague Dawley). To be noted: single administration, i.v., amounts as hemicitrate salt.

SMILES strings stand for the structures. Values joined by “and” are separate entries in the source; they are usually repeats but may differ in a detail not shown here. Equal values may be shown once.

For `CN(C)[C@]1(c2ccccc2)CC[C@]2(CC1)OCCc1c3cc(F)ccc3[nH]c12`, in the test with rat (i.v., 15 min p. appl., hemicitrate salt), the “ED50 (95% CI)” value is 3.31 (2.85-3.75) μg/kg. Further, the “timepoint of peak effect” value with rat (first ingredient i.v., ibuprofen i.p.) is on record as 15 min p. appl. Besides, in test [1], the “ED25 (95% CI)” value was 0.0065 mg/kg and 0.0065 (0.0057-0.0072) mg/kg.
